{"sequences": {"note": "The chains behind the UniProt entries cited, without tags or fusion partners. Residues count along the entry.", "UniProt O14672, 214-748 limits assumed": "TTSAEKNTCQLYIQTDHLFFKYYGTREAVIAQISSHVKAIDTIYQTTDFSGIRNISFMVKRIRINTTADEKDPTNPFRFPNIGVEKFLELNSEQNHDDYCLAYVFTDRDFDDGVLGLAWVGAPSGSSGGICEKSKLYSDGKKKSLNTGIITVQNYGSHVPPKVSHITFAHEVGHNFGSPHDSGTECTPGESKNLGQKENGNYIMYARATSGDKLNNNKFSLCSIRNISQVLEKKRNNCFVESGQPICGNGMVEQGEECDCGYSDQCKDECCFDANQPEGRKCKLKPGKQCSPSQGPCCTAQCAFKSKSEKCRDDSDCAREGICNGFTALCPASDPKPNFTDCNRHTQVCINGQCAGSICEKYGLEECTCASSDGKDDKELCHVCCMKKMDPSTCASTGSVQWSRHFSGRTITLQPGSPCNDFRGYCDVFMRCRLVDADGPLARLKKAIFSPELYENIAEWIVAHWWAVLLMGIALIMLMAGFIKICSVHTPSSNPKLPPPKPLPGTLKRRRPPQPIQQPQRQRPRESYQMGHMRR"}, "source": "PubChem BioAssay AID743256", "about": "(The Scripps Research Institute Molecular Screening Center, 2014)", "note": "The list shows a part of the results, in another mix than the full data. Calls of active or inactive are those of the source.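 The calls were made as follows: active = mean inhibition over the triplicate runs exceeds the activity threshold set in the earlier primary screen (cut at about 20% in these data); inactive = the rest.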"}
{"biological_target": "Disintegrin and metalloproteinase domain-containing protein 10 (Homo sapiens) (UniProt O14672)", "assay": "blockers of ADAM10 peptide cleavage – biochemical, FRET, human ADAM10, counter-screen for ADAM17 exosite inhibitor project (AID 743256);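 also: 0% = DMSO wells and 100% = marimastat wells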", "settings": "recombinant ADAM10, EDANS/DABCYL FRET peptide cleavage, 3 h; at 6.95 µM; hits give high values", "summary_of_the_method": "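System: human ADAM10 metalloprotease enzyme in a cell-free biochemical assay; amount: enzyme 2X stock at 20 nM; signal: FRET fluorescence readout; also added: EDANS/DABCYL DM2 peptide, 2X stock 20 µM; control set: 1 µM marimastat (high) and DMSO (low); times: 30 min plus 3 h, 25 °C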"}
{"smiles": "CC(C)(C)n1nnnc1C(c1cccc2ccccc12)N1CCC(n2c(=O)[nH]c3ccccc32)CC1", "note": "(stereo unspecified)", "inhibition": "active: 39.8%"}
